The values that follow come from ChEMBL document CHEMBL4477216, “Discovery and Optimization of Small Molecule Splicing Modifiers of Survival Motor Neuron 2 as a Treatment for Spinal Muscular Atrophy” (J Med Chem, 2016).

For the experiment, the species on record is Homo sapiens. Kind of experiment: Inhibition of mRNA splicing of SMN2 exon 7 in GM03813 fibroblasts derived from SMA patient assessed as compound concentration required to increase SMN protein level by 1.5 times after 24 hrs by HTRF assay. In general terms: Time-resolved FRET reads energy transfer from a long-lived donor to a nearby acceptor.

Each structure is given as a SMILES string.

For the compound `Cc1cn2cc(-c3cc4ccc(N5CCN(C)CC5)cc4c(=O)o3)nc2c(C)n1`, the EC1.5 is 120 nM.
